Measured values reported in patent US8979831B2 (priority 2008, dated 2015).
Where “and” joins values, the source holds several entries; their conditions need not be identical. Equal entries are not always repeated.

Assay: Temperature profile of hydrolysis of ethyl chloroformate in water in hydrophobic gel phantom
Conditions: 200 microliters of 0.5M + 200 microliters of water

CCOC(=O)Cl
Temperature, single run (0 sec): 23.2 °C and 23.4 °C and 23.6 °C | Temperature, single run (15 sec): 32 °C and 31.8 °C | Temperature, single run (30 sec): 30.9 °C and 30.2 °C and 30.7 °C | Temperature, single run (45 sec): 29.6 °C and 29.5 °C and 29.8 °C | Temperature, single run (60 sec): 28.2 °C and 29 °C and 29.2 °C | Temperature, single run (75 sec): 28.1 °C and 28.6 °C and 28.4 °C | Temperature, single run (90 sec): 27.6 °C and 28.1 °C and 27.9 °C | Temperature, single run (105 sec): 26.8 °C and 27.6 °C | Temperature, single run (120 sec): 27.1 °C and 27.3 °C | Temperature, single run (135 sec): 26.9 °C and 26.7 °C and 27 °C | Temperature, single run (150 sec): 26.6 °C and 26.7 °C | Temperature, single run (165 sec): 26.3 °C and 26.4 °C | Temperature, single run (180 sec): 26.1 °C and 26.2 °C | Temperature, single run (195 sec): 25.8 °C and 26 °C | Temperature, single run (210 sec): 25.4 °C and 25.9 °C | Temperature, single run (225 sec): 25.4 °C and 25.7 °C and 25.5 °C | Temperature, single run (240 sec): 25.4 °C and 25.5 °C and 25.6 °C | Temperature, single run (255 sec): 25.2 °C and 25.5 °C | Temperature, single run (270 sec): 25.1 °C and 25.4 °C and 25.3 °C | Temperature, single run (285 sec): 25 °C and 25.2 °C | Temperature, single run (300 sec): 24.9 °C and 25 °C and 25.1 °C
